The values below come from patent US7803831B2, “3-(2-hydroxy-phenyl)-1H-pyrazole-4-carboxylic acid amide derivatives as HSP90 inhibitors for the treatment of cancer” (Vernalis (Cambridge) Limited, priority 2002, dated 2010).

Protein sequences, listed by entry. Tags and fused reporters are not part of them.
UniProt P02829, whole entry, looked up: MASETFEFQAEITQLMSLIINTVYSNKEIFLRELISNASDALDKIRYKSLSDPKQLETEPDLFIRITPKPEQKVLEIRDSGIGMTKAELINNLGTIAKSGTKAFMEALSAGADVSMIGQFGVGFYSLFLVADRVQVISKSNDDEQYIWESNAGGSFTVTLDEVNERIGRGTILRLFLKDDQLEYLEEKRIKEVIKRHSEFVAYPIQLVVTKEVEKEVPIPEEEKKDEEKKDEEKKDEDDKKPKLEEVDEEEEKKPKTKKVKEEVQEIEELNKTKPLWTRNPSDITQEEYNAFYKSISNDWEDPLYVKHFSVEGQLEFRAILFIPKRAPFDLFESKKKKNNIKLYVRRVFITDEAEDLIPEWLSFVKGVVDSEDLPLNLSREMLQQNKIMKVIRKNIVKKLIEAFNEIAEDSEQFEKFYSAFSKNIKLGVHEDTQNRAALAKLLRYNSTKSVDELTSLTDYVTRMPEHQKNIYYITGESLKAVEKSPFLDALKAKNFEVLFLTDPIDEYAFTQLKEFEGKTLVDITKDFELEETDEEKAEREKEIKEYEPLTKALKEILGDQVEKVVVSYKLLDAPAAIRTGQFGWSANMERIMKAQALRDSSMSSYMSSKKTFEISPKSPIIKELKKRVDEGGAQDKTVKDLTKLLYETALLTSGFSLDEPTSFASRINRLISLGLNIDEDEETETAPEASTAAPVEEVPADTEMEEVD

This test addresses T1, yeast HSP90 (Saccharomyces cerevisiae, UniProt P02829).
T1 construct: made in house; host or cells: E. coli
Description: Malachite green ATPase assay. It is filed as biochemical. The conditions noted are these: activity range. The text has this:
The intrinsic ATPase activity of HSP90 may be measured using yeast HSP90 as a model system. The assay, based on the use of malachite green for the measurement of inorganic phosphate, was used to test the HSP90 inhibitory activity of the compounds of the Examples herein.
Malachite Green ATPase Assay
Chemicals are of the highest purity commercially available and all aqueous solutions are made up in AR water. Because of the need to minimise contamination with inorganic phosphate, precautions should be taken with solutions and apparatus used in the assays. Glassware and pH meters are rinsed with double distilled or deionised water before use and, wherever possible, plastic ware should be used. Gloves are worn for all procedures. • (1) Greiner 384-well (Greiner 781101) or Costar 384-well flat-bottomed polystyrene multiwell plates (VWR). • (2) Assay buffer of (a) 100 mM Tris-HCl, pH 7.4, (b) 150 mM KCI, (c) 6 mM MgCl2. Stored at room temperature. • (3) 0.0812% (w/v) malachite green (M 9636, Sigma Aldrich Ltd., Poole, UK). Stored at room temperature. • (4) 2.32% (w/v) polyvinyl alcohol USP (P 1097, Sigma Aldrich Ltd, Poole, UK) in boiling water (see Comment 1), allowed to cool, and stored at room temperature. • (5) 5.72% (w/v) ammonium molybdate in 6 M hydrochloric acid. […] Measure Absorbance at 620 nm using a suitable plate reader (e.g. Victor, Perkin Elmer Life Sciences, Milton Keynes, UK). […]

Regarding `CC(=O)c1ccc(NC(=O)c2c[nH]nc2-c2cc(Cl)c(O)cc2O)cc1` [Example 1, 3-(5-chloro-2,4-dihydroxy-phenyl)-1H-pyrazole-4-carboxylic acid (4-acetyl-phenyl)-amide], the IC50 is < 50 µM.
With `NS(=O)(=O)c1ccc(CNC(=O)c2c[nH]nc2-c2cc(Cl)c(O)cc2O)cc1` [Example 21] the figure was < 50 µM.

The term IC50 denotes the concentration that gives 50% inhibition.
